Data from article PMC7450492 (Molecular cancer therapeutics, 2020).

System: phosphorylation of Syk at 348 site and Y525/526 site
Assay: phosphorylation of Syk
Format: cell-based

Compound: Cc1nn(-c2ccnc(Nc3ccc(-c4csc5c(=O)cc(N6CCOCC6)oc45)cc3)n2)cc1CN1CCC1 [SRX3207]
- phosphorylation of Syk at 348 site and Y525/526 site: potently blocks
